Paper PMC2692895 (Journal of medicinal chemistry, 2008)

Test system: XIAP knockout (−/−) mouse embryonic fibroblasts (MEF) cells
Details: 24 hours; at much higher concentrations

CN[C@@H](C)C(=O)Nc1ccc(Oc2ccc(OC)cc2)c(C(=O)NCc2csc(-c3cccs3)n2)c1 [Compound 3, (S)-2-(4-methoxyphenoxy)-5-(2-(methylamino)propanamido)-N-((2-(thiophen-2-yl)thiazol-4-yl)methyl)benzamide]
killing of XIAP knockout (−/−) MEF cells: still killed XIAP knockout (−/−) MEF cells
